Test results reported in patent US12678425B2, “Methods for treating against viruses” (Howard University, priority 2019, dated 2026).

Test system: HSV-1 ICP0 mRNA
Test: Real-time RT-PCR of HSV-1 ICP0 transcript in Hep-2 cells
Conditions: 12 and 24 hpi

Structure (SMILES)	level of ICP0 mRNA versus DMSO
COc1ccc(-c2nnc(SCC(=O)O)n2N)cc1 [SD-29-12]	essentially showed the same level of ICP0 mRNA
Nn1c(S)nnc1-c1ccc(F)cc1 [SD-29]	essentially showed the same level of ICP0 mRNA
